## Antibody variant affinities, Ab-14 light chain, assay 1

Binding partner: SARS-CoV-2 spike HR2 peptide, sequence PDVDLGDISGINAS.

Parent: Ab-14, a human scFv built as VH, three GGGGS repeats, VL. Only the CDRs of the light chain vary.
VH: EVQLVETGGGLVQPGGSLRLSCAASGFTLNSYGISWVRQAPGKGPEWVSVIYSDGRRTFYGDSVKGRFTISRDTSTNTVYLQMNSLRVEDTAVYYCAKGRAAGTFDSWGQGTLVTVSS
VL: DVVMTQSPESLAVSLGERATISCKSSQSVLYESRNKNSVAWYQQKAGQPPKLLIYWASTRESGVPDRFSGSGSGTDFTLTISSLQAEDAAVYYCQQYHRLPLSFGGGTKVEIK

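The starting antibody came from a phage panning campaign against this peptide. In library AAYL50, one, two or three CDR residues were substituted; doubles and triples were drawn at random. The scFvs were displayed on barcoded MATa yeast, the peptide on MATalpha yeast. Mating (16 h, 30 °C) was followed by selection of diploids and sequencing of their barcodes. The ratio of observed to expected reads was calibrated, replicate by replicate, on BCL2-family standards whose Kd was known from biolayer interferometry. There are three technical replicates.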

Changes read parent residue, position, new residue, counted from the first residue of the VL shown.
This list gathers variants with a substitution at K36 (VL, numbered from residue 1).
Values are log10 of the apparent Kd in nM; lower means stronger binding.
Averages over replicates are reported, and they cover detected replicates only.
A pair that was not seen in any replicate is written "no signal"; this usually means weak binding, but a binder can also be missed.
Background: pairings of library AAYL50 with three empty control strains gave a value in 18% of cases (median 4.19, 5th percentile 2.99). Values in that range, when seen in few replicates, are hard to tell from nonspecific mating.

With K36P/A57D/H98Q the result was 4.91 (2 of 3 replicates). The variant S26R/L30Q/K36F gave 3.34 (3 of 3 replicates). The variant V29Y/K36S/S62A showed 0.52 (3 of 3 replicates). The variant K36V/R60N/R99V gave 4.52 (1 of 3 replicates). For K36C/N37T/P101V, the assay gave no signal (0 of 3 replicates). For K24D/N35A/K36M, the assay gave 2.22 (3 of 3 replicates). The variant N35C/K36A/A57I showed no signal (0 of 3 replicates). For K36S/L100V/S103L, the assay gave 4.80 (1 of 3 replicates).

The variant V29H/K36M/H98A showed no signal (0 of 3 replicates). The variant K36D/S58H/Q96T gave no signal (0 of 3 replicates). With S25I/K36H/V39T the result was 2.57 (3 of 3 replicates). The variant S26E/K36Y/A40Y gave no signal (0 of 3 replicates). The variant S28C/K36A/T59H showed 1.49 (3 of 3 replicates). The variant K36E/S38V/W56N gave 0.10 (3 of 3 replicates). With Y31K/K36P/E61L the result was 0.88 (3 of 3 replicates). The variant N35M/K36H/H98V showed 2.48 (3 of 3 replicates).

For L30E/K36H/S103E, the assay gave 0.62 (3 of 3 replicates). For Q27R/K36I/L102S, the assay gave no signal (0 of 3 replicates). The variant V29H/L30C/K36D gave 2.35 (3 of 3 replicates). For S28T/N35K/K36E, the assay gave 1.34 (3 of 3 replicates). For K36H, the assay gave 1.11 (3 of 3 replicates). The variant K36P/A57R/L100S gave 3.51 (1 of 3 replicates). For S28R/S33F/K36Y, the assay gave 3.20 (2 of 3 replicates). The variant Y31W/K36W/S38F gave 2.77 (1 of 3 replicates).

For K36R/N37C/L100D, the assay gave 3.37 (3 of 3 replicates). The variant R34Q/K36N/W56C showed 1.36 (3 of 3 replicates). For K36V/N37C/W56S, the assay gave 0.80 (3 of 3 replicates). With K36H/S58I/H98P the result was no signal (0 of 3 replicates). With K36Y the result was 1.37 (3 of 3 replicates). For K36C/Q95C/R99W, the assay gave no signal (0 of 3 replicates).

Repeated from above, the 4 best binders with a signal in all replicates:

{"changes": "K36E/S38V/W56N", "log10 Kd (nM), mean": "0.10", "detected": "3 of 3"}
{"changes": "V29Y/K36S/S62A", "log10 Kd (nM), mean": "0.52", "detected": "3 of 3"}
{"changes": "L30E/K36H/S103E", "log10 Kd (nM), mean": "0.62", "detected": "3 of 3"}
{"changes": "K36V/N37C/W56S", "log10 Kd (nM), mean": "0.80", "detected": "3 of 3"}

Source: Engelhart et al. 2022 (doi:10.1038/s41597-022-01779-4), MIT Lincoln Laboratory and A-Alpha Bio; data file from the FLAb repository.